Measurements taken from patent US8802673B2, “Heterocyclic amine derivatives” (Hoffmann-La Roche Inc, priority 2011, dated 2014).

The chains behind the UniProt entries cited, without tags or fusion partners.
UniProt Q923Y8, whole entry: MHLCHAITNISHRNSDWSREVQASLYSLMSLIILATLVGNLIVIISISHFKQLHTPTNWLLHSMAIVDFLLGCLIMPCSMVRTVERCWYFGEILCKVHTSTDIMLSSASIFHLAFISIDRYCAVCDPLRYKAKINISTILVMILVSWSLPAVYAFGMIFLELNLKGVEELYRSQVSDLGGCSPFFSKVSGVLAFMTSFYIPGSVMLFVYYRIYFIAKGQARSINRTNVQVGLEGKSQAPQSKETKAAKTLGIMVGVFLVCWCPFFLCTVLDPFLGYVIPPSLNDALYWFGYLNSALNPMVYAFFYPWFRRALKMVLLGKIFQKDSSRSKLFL
UniProt Q923Y9, whole entry: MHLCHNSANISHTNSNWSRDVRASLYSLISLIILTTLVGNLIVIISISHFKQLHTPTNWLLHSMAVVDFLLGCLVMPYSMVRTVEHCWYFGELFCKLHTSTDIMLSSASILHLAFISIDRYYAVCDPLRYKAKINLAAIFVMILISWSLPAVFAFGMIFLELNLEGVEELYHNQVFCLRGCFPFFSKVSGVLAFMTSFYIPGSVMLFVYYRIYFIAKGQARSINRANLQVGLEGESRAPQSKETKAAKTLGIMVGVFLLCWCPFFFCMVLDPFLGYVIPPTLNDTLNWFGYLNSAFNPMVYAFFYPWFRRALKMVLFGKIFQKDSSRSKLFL

Each compound was assayed against mouse TAAR1 (Mus musculus (Mouse), UniProt Q923Y8) (assay: Radioligand binding assay on mouse TAAR1). Conditions: mouse TAAR1 (first value of the cell), HEK-293 membranes; read-out: Ki (μM) mouse/rat.
Procedure: (§1) Construction of TAAR Expression Plasmids and Stably Transfected Cell Lines
(§2) For the construction of expression plasmids the coding sequences of human, rat and mouse TAAR 1 were amplified from genomic DNA essentially as described by Lindemann et al.. The Expand High Fidelity PCR System (Roche Diagnostics) was used with 1.5 mM Mg^2+ and purified PCR products were cloned into pCR2.1-TOPO cloning vector (Invitrogen) following the instructions of the manufacturer. PCR products were subcloned into the pIRESneo2 vector (BD Clontech, Palo Alto, Calif.), and expression vectors were sequence verified before introduction in cell lines.
(§3) HEK293 cells (ATCC #CRL-1573) were cultured essentially as described by Lindemann et al. (2005). For the generation of stably transfected cell lines HEK293 cells were transfected with the pIRESneo2 expression plasmids containing the TAAR coding sequences (described above) with Lipofectamine 2000 (Invitrogen) according to the instructions of the manufacturer, and 24 hrs post transfection the culture medium was supplemented with 1 mg/ml G418 (Sigma, Buchs, Switzerland). After a culture period of about 10 d clones were isolated, expanded and tested for responsiveness to trace amines (all compounds purchased from Sigma) with the cAMP Biotrak Enzyme immunoassay (EIA) System (Amersham) following the non-acetylation EIA procedure provided by the manufacturer.
Radioligand Binding Assay on Mouse TAAR1
Membrane Preparation and Radioligand Binding.
HEK-293 cells stably expressing mouse TAAR1 were maintained at 37° C. and 5% CO2 in DMEM high glucose medium, containing fetal calf serum (10%, heat inactivated for 30 min at 56° C.), penicillin/streptomycin (1%), and 375 μg/ml geneticin (Gibco). Cells were released from culture flasks using trypsin/EDTA, harvested, washed twice with ice-cold PBS (without Ca^2+ and Mg^2+), pelleted at 1,000 rpm for 5 min at 4° C., frozen and stored at −80° C. Frozen pellets were suspended in 20 ml HEPES-NaOH (20 mM, pH 7.4) containing 10 mM EDTA and homogenized with a Polytron (PT 6000, Kinematica) at 14,000 rpm for 20 s. The homogenate was centrifuged at 48,000×g for 30 min at 4° C. Subsequently, the supernatant was removed and discarded, and the pellet resuspended in 20 ml HEPES-NaOH (20 mM, pH 7.4) containing 0.1 mM EDTA using the Polytron (20 s at 14,000 rpm). This procedure was repeated and the final pellet resuspended in HEPES-NaOH containing 0.1 mM EDTA and homogenized using the Polytron. Typically, aliquots of 2 ml membrane portions were stored at −80° C. With each new membrane batch the dissociation constant (Kd) was determined via a saturation curve. The TAAR1 radioligand ^3[H]-(S)-4-[(ethyl-phenyl-amino)-methyl]-4,5-dihydro-oxazol-2-ylamine (described in WO 2008/098857) was used at a concentration equal to the calculated Kd value, that was usually around 0.7 nM, resulting in the binding of approximately 0.5% of the radioligand and a specific binding representing approximately 70% of the total binding. Nonspecific binding was defined as the amount of ^3[H]-(S)-4-[(ethylphenyl-amino)-methyl]-4,5-dihydro-oxazol-2-ylamine bound in the presence of 10 μM unlabeled ligand. All compounds were tested at a broad range of concentrations (10 pM to 10 μM) in duplicates. […] The 96 deep well plates were incubated for 1 hr at 4° C. Incubations were terminated by rapid filtration through Unifilter-96 plates (Packard Instrument Company) and glass filters GF/C (Perkin Elmer) presoaked for 1 hr in polyethylenimine (0.3%) and washed 3 times with 1 ml of cold binding buffer. After addition of 45 μl of Microscint 40 (PerkinElmer) the Unifilter-96 plate was sealed and after 1 hr the ratioactivity counted using a TopCount Microplate Scintillation Counter (Packard Instrument Company).
`Brc1cnc(Nc2ccc([C@@H]3CNCCO3)cc2)nc1` [Example 94, (5-Bromo-pyrimidin-2-yl)-((R)-4-morpholin-2-yl-phenyl)-amine] was tested, and the Ki was 0.0035 µM.
With `Cc1cc([C@@H]2CNCCO2)ccc1Nc1ncc(C2CC2)cn1` [Example 110, (5-Cyclopropyl-pyrimidin-2-yl)-((R)-2-methyl-4-morpholin-2-yl-phenyl)-amine] the Ki was 0.0026 µM.
In the case of `Fc1cc([C@H]2CNCCO2)ccc1Nc1ncc(C2CC2)cn1` [Example 119, (5-Cyclopropyl-pyrimidin-2-yl)-((S)-2-fluoro-4-morpholin-2-yl-phenyl)-amine], the Ki is reported as 0.0025 µM.
`Brc1ccc(Nc2ccc([C@@H]3CNCCO3)cn2)nc1` [Example 108, (R)-5-Bromo-N-(5-(morpholin-2-yl)pyridin-2-yl)pyridin-2-amine] was tested, and the Ki was 0.0122 µM.
Work on `Fc1cc([C@H]2CNCCO2)ccc1Nc1ncc(Br)cn1` [Example 127, (5-Bromo-pyrimidin-2-yl)-((S)-2-fluoro-4-morpholin-2-yl-phenyl)-amine] yielded a Ki of 0.003 µM.
Work on `Clc1cc([C@@H]2CNCCO2)ccc1Nc1ncc(C2CC2)cn1` [Example 170, (R)—N-(2-Chloro-4-(morpholin-2-yl)phenyl)-5-cyclopropylpyrimidin-2-amine] yielded a Ki of 0.0016 µM.
In the case of `Clc1cc([C@H]2CNCCO2)ccc1Nc1ncc(C2CC2)cn1` [Example 171, (S)—N-(2-Chloro-4-(morpholin-2-yl)phenyl)-5-cyclopropylpyrimidin-2-amine], the Ki is reported as 0.0008 µM.
`Fc1cc(C2CNCCO2)ccc1Nc1ccc(Cl)cn1` (racemic) [Example 99, (RS)-5-Chloro-N-(2-fluoro-4-(morpholin-2-yl)phenyl)pyridin-2-amine] was tested, and the Ki was 0.0008 µM.
Compound `Cc1cc([C@H]2CNCCO2)ccc1Nc1ncc(C2CC2)cn1` [Example 111, (5-Cyclopropyl-pyrimidin-2-yl)-((S)-2-methyl-4-morpholin-2-yl-phenyl)-amine] has a Ki of 0.0044 µM.
`Fc1cc([C@@H]2CNCCO2)ccc1Nc1ncc(C2CC2)cn1` [Example 118, (5-Cyclopropyl-pyrimidin-2-yl)-((R)-2-fluoro-4-morpholin-2-yl-phenyl)-amine] gave a Ki of 0.0038 µM.
`Fc1cc([C@@H]2CNCCO2)ccc1Nc1ncc(Br)cn1` [Example 126, (5-Bromo-pyrimidin-2-yl)-((R)-2-fluoro-4-morpholin-2-yl-phenyl)-amine] gave a Ki of 0.004 µM.
In the case of `FC(F)(F)COc1cnc(Nc2ccc([C@@H]3CNCCO3)cc2Cl)nc1` [Example 184, ((R)-2-Chloro-4-morpholin-2-yl-phenyl)-[5-(2,2,2-trifluoro-ethoxy)-pyrimidin-2-yl]-amine], the Ki is reported as 0.002 µM.

These compounds were tested against rat TAAR1 (Rattus norvegicus (Rat), UniProt Q923Y9) (assay: Radioligand binding assay on rat TAAR1). Conditions: rat TAAR1 (second value of the cell), HEK-293 membranes; read-out: Ki (μM) mouse/rat.
Procedure: as §1, §2, §3
Radioligand Binding Assay on Rat TAAR1
Membrane Preparation and Radioligand Binding
HEK-293 cells stably expressing rat TAAR1 were maintained at 37° C. and 5% CO2 in DMEM high glucose medium, containing fetal calf serum (10%, heat inactivated for 30 min at 56° C.), penicillin/streptomycin (1%), and 375 μg/ml geneticin (Gibco). […] With each new membrane batch the dissociation constant (Kd) was determined via a saturation curve. […] After addition of 45 μl of Microscint 40 (PerkinElmer) the Unifilter-96 plate was sealed and after 1 hr the ratioactivity counted using a TopCount Microplate Scintillation Counter (Packard Instrument Company).
For `Clc1cc(C2CNCCO2)ccc1Nc1ncc(C2CC2)cn1` (racemic) [Example 149, (RS)—N-(2-Chloro-4-(morpholin-2-yl)phenyl)-5-cyclopropylpyrimidin-2-amine], the Ki was 0.0014 µM.
`Clc1cc([C@@H]2CNCCO2)ccc1Nc1ncc(C2CC2)cn1` [Example 170, (R)—N-(2-Chloro-4-(morpholin-2-yl)phenyl)-5-cyclopropylpyrimidin-2-amine] was tested, and the Ki was 0.0012 µM.
Compound `FC(F)(F)COc1cnc(Nc2ccc([C@@H]3CNCCO3)cc2Cl)nc1` [Example 184, ((R)-2-Chloro-4-morpholin-2-yl-phenyl)-[5-(2,2,2-trifluoro-ethoxy)-pyrimidin-2-yl]-amine] has a Ki of 0.002 µM.
